From PMC11472320, “Computationally Driven Discovery of a BCR-ABL1 Kinase Inhibitor with Activity in Multidrug-Resistant Chronic Myeloid Leukemia” (Journal of Medicinal Chemistry, 2024)

Sequences of proteins named here, by UniProt entry; tags and fusion partners are left off. A change or cut given only in a name is not applied to a line headed by its entry.
UniProt Q52WX2: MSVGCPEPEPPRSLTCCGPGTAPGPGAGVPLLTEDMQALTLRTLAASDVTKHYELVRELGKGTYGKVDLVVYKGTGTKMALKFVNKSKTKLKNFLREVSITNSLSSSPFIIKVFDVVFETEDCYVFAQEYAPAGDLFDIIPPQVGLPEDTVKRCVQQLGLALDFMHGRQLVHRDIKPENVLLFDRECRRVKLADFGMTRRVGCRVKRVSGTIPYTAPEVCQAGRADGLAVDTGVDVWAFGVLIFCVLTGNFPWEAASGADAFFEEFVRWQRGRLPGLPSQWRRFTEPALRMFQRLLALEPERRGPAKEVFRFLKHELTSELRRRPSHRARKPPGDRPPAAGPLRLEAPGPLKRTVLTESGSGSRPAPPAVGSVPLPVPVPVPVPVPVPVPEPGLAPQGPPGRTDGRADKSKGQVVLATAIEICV
UniProt Q00526: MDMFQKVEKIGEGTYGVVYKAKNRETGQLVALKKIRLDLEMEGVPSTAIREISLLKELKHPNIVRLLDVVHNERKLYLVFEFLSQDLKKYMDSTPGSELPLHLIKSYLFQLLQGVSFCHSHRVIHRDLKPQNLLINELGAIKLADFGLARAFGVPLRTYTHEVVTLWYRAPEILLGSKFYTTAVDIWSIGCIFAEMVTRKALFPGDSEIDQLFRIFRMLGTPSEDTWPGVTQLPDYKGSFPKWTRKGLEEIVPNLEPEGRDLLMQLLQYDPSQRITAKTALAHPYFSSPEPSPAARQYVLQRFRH
UniProt O76039: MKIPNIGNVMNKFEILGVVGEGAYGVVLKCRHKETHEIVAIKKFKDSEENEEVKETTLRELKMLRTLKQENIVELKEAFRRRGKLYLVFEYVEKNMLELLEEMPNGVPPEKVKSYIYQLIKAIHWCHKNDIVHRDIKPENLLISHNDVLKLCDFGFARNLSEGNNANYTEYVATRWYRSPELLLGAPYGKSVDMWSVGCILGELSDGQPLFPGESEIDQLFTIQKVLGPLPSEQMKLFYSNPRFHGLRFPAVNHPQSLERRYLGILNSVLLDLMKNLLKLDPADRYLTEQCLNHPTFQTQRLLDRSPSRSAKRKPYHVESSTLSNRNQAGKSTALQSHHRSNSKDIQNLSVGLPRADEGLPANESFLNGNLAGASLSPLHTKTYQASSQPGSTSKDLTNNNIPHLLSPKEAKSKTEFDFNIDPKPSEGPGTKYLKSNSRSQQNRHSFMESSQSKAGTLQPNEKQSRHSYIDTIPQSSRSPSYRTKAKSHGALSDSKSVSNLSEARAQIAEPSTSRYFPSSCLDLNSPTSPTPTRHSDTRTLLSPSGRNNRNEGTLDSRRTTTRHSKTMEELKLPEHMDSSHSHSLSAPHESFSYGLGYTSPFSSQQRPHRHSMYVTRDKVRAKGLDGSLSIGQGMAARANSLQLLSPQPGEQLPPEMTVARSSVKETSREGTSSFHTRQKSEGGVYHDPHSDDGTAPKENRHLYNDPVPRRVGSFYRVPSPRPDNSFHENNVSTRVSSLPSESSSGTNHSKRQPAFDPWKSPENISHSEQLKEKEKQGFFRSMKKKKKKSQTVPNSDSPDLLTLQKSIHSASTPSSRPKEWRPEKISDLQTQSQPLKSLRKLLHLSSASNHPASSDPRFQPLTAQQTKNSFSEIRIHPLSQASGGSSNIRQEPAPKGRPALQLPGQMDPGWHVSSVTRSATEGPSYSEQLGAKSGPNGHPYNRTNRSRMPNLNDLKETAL
UniProt P42336, whole entry C420R: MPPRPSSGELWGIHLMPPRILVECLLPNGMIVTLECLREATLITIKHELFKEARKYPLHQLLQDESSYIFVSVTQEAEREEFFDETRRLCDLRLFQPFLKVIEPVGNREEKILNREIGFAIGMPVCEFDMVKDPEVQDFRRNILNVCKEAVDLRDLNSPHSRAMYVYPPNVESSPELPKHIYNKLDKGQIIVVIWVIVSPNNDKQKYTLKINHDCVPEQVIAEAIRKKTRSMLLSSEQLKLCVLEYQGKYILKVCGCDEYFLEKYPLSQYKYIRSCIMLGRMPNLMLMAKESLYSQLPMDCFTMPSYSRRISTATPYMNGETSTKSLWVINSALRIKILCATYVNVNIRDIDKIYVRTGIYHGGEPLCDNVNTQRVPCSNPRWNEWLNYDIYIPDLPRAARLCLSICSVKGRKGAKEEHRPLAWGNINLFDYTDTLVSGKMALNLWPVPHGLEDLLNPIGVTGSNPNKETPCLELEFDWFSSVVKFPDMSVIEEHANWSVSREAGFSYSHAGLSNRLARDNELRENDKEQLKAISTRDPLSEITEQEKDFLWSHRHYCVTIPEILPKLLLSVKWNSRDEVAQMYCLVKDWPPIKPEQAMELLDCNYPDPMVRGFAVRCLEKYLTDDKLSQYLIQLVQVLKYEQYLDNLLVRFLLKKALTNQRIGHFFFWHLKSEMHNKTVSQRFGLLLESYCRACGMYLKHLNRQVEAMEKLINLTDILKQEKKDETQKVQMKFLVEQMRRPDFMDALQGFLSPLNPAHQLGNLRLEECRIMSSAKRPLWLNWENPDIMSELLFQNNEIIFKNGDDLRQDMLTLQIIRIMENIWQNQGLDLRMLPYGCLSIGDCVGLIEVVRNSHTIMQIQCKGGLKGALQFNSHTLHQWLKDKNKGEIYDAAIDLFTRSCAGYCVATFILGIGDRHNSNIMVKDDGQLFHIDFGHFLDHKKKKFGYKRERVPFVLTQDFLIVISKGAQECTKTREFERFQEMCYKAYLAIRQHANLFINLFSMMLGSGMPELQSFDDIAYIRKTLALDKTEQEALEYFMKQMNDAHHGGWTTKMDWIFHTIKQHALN
UniProt P42336, whole entry H1047L: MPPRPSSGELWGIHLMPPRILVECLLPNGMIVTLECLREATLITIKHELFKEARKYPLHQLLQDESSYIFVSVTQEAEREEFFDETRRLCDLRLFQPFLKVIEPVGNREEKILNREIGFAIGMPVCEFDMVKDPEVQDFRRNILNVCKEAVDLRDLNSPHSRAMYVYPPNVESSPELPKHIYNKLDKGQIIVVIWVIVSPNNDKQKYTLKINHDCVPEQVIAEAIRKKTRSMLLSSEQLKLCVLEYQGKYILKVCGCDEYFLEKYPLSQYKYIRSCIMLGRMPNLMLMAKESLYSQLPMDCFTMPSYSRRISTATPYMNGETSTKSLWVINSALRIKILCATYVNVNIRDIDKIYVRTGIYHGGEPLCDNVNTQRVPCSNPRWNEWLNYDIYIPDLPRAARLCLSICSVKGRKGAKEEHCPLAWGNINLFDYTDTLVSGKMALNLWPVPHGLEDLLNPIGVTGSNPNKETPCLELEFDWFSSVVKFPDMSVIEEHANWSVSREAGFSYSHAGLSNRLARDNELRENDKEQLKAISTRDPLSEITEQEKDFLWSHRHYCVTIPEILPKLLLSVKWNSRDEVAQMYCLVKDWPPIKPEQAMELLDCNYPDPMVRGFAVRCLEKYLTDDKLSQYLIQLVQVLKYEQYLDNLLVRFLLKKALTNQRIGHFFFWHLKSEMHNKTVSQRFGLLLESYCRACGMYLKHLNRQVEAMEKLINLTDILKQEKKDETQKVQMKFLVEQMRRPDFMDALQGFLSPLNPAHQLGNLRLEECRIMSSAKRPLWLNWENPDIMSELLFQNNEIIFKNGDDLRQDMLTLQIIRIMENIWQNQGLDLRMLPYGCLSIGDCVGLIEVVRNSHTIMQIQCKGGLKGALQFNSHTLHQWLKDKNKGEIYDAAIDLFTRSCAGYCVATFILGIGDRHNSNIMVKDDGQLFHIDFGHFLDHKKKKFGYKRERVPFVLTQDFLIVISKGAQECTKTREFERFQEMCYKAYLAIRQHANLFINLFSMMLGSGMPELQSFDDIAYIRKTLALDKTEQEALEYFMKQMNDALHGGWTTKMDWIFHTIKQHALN
UniProt P42336, whole entry: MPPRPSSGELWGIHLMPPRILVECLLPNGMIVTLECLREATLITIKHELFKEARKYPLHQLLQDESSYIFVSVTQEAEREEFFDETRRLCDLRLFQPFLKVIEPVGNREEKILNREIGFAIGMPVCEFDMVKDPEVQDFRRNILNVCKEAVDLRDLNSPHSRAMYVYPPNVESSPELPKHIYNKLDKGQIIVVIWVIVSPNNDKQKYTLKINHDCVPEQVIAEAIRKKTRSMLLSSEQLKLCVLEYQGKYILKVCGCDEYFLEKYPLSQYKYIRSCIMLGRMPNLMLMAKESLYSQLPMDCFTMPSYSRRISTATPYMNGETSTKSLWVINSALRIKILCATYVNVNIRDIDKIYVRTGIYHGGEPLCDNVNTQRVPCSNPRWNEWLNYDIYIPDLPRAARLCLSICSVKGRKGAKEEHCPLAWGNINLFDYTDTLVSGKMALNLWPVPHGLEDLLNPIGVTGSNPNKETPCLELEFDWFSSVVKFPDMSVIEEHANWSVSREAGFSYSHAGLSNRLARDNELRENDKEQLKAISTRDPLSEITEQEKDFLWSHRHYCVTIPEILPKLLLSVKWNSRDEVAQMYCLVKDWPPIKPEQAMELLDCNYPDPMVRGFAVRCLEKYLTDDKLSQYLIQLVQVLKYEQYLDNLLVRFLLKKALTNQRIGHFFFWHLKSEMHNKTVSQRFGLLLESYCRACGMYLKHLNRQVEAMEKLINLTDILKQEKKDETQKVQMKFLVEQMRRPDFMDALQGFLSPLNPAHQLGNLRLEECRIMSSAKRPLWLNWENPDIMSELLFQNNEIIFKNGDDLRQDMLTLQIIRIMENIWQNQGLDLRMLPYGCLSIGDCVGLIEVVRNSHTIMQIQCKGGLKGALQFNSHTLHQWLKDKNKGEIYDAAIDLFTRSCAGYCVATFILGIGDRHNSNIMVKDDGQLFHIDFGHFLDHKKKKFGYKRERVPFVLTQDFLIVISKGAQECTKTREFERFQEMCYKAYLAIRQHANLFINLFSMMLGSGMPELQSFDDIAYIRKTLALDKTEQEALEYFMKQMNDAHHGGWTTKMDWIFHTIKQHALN
UniProt P43403: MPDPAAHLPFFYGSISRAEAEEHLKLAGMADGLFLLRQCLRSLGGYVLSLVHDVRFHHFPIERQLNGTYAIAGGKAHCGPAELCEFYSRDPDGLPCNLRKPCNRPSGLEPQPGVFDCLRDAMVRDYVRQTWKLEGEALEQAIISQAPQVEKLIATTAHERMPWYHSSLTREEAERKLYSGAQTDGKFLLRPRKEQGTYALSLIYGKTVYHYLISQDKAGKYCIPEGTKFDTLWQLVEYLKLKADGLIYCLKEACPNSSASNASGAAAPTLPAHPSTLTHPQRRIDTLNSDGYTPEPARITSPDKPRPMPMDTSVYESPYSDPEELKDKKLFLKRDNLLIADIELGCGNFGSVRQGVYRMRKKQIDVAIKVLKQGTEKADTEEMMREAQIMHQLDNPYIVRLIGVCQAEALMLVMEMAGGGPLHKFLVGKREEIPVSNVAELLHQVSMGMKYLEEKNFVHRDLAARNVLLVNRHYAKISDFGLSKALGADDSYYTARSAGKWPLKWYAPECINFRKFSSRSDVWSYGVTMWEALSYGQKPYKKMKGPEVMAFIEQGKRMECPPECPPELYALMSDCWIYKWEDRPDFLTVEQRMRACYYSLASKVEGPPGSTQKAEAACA
UniProt P45985: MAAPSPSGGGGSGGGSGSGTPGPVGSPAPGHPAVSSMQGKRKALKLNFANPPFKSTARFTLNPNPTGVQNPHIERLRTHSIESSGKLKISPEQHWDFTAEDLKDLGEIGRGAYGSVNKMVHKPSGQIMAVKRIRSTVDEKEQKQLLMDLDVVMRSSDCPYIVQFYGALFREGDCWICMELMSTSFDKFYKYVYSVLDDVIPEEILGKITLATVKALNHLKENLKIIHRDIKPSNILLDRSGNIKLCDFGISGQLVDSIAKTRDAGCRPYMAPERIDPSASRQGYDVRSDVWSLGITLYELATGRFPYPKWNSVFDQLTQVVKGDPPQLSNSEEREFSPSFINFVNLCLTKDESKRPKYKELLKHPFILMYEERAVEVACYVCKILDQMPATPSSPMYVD
UniProt Q96BR1: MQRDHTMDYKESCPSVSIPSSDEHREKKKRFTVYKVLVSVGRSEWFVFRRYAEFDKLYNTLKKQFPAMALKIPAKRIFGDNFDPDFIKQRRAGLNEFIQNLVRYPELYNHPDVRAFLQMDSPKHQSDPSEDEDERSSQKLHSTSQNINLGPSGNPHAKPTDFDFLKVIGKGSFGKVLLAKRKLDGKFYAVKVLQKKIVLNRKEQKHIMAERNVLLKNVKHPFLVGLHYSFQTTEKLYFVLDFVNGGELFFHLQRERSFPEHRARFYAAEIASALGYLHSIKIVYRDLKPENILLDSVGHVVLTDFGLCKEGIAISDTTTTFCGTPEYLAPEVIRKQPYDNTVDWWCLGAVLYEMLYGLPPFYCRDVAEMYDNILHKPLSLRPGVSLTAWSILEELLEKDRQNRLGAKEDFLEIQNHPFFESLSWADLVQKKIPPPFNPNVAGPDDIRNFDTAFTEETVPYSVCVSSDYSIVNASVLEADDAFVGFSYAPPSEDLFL

Columns and labels:
Assay in all cases: biochemical
Conditions in all cases: read-out: Percent Control
[1] = target: RSK3(Kin.Dom.2-C-terminal) (Homo sapiens, UniProt Q15349)
LCK = LCK (Homo sapiens, UniProt P06239)
VPS34 = VPS34 (Homo sapiens, UniProt Q8NEB9)
ALK(C1156Y) = ALK(C1156Y) (Homo sapiens, UniProt Q9UM73, C1156Y)
MRCKA = MRCKA (Homo sapiens, UniProt Q5VT25)
CIT = CIT (Homo sapiens, UniProt O14578)
EGFR(L861Q) = EGFR(L861Q) (Homo sapiens, UniProt P00533, L861Q)
SBK1 = SBK1 (Homo sapiens, UniProt Q52WX2)
BIKE = BIKE (Homo sapiens, UniProt Q9NSY1)
CDK3 = CDK3 (Homo sapiens, UniProt Q00526)
MST1R = MST1R (Homo sapiens, UniProt Q04912)
BRSK1 = BRSK1 (Homo sapiens, UniProt Q8TDC3)
EPHA1 = EPHA1 (Homo sapiens, UniProt P21709)
CDKL5 = CDKL5 (Homo sapiens, UniProt O76039)
AKT2 = AKT2 (Homo sapiens, UniProt P31751)
NDR2 = NDR2 (Homo sapiens, UniProt Q9Y2H1)
MYO3A = MYO3A (Homo sapiens, UniProt Q8NEV4)
PIKFYVE = PIKFYVE (Homo sapiens, UniProt Q9Y2I7)
PIK3CA(C420R) = PIK3CA(C420R) (Homo sapiens, UniProt P42336, C420R)
MTOR = MTOR (Homo sapiens, UniProt P42345)
ZAP70 = ZAP70 (Homo sapiens, UniProt P43403)
SIK = SIK (Homo sapiens, UniProt P57059)
PAK1 = PAK1 (Homo sapiens, UniProt Q13153)
PYK2 = PYK2 (Homo sapiens, UniProt Q14289)
FLT3(D835V) = FLT3(D835V) (Homo sapiens, UniProt P36888, D835V)
AURKC = AURKC (Homo sapiens, UniProt Q9UQB9)
CSNK1E = CSNK1E (Homo sapiens, UniProt P49674)
PLK4 = PLK4 (Homo sapiens, UniProt O00444)
TLK1 = TLK1 (Homo sapiens, UniProt Q9UKI8)
FGFR1 = FGFR1 (Homo sapiens, UniProt P11362)
MEK4 = MEK4 (Homo sapiens, UniProt P45985)
ITK = ITK (Homo sapiens, UniProt Q08881)
CSNK1D = CSNK1D (Homo sapiens, UniProt P48730)
MKNK1 = MKNK1 (Homo sapiens, UniProt Q9BUB5)
SgK110 = SgK110 (Homo sapiens, UniProt P0C264)
p38-delta = p38-delta (Homo sapiens, UniProt O15264)
FAK = FAK (Homo sapiens, UniProt Q05397)
SGK3 = SGK3 (Homo sapiens, UniProt Q96BR1)
PIK3CA(H1047L) = PIK3CA(H1047L) (Homo sapiens, UniProt P42336, H1047L)
NEK4 = NEK4 (Homo sapiens, UniProt P51957)
[2] = target: RPS6KA5(Kin.Dom.1-N-terminal) (Homo sapiens, UniProt O75582)
PIK3CA = PIK3CA (Homo sapiens, UniProt P42336)
PDGFRA = PDGFRA (Homo sapiens, UniProt P16234)

For `COc1cc2c(Nc3ccc(Cl)c(OC)n3)c(C#N)cnc2cc1OCCON1CCN(C)CC1` [16a, 4-((5-Chloro-6-methoxypyridin-2-yl)amino)-6-methoxy-7-(2-((4-methylpiperazin-1-yl)oxy)ethoxy)quinoline-3-carbonitrile], the remaining activity at 1 µM [1] was 63%, the remaining activity at 1 µM (LCK) was 0.35% and the remaining activity at 1 µM (VPS34) was 100%. It also gave a remaining activity at 1 µM (ALK(C1156Y)) of 31%, a remaining activity at 1 µM (MRCKA) of 88% and a remaining activity at 1 µM (CIT) of 1.2%. The remaining activity at 1 µM (EGFR(L861Q)) was 1%, the remaining activity at 1 µM (SBK1) was 86% and the remaining activity at 1 µM (BIKE) was 1.2%. It also gave a remaining activity at 1 µM (CDK3) of 99%, a remaining activity at 1 µM (MST1R) of 100% and a remaining activity at 1 µM (BRSK1) of 100%. For the same compound, the remaining activity at 1 µM (EPHA1) was 69%, the remaining activity at 1 µM (CDKL5) was 100% and the remaining activity at 1 µM (AKT2) was 97%. The remaining activity at 1 µM (NDR2) was 85%, the remaining activity at 1 µM (MYO3A) was 43% and the remaining activity at 1 µM (PIKFYVE) was 79%. It also gave a remaining activity at 1 µM (PIK3CA(C420R)) of 100%, a remaining activity at 1 µM (MTOR) of 80% and a remaining activity at 1 µM (ZAP70) of 58%. The remaining activity at 1 µM (SIK) was 1.1%, the remaining activity at 1 µM (PAK1) was 48% and the remaining activity at 1 µM (PYK2) was 55%. For the same compound, the remaining activity at 1 µM (FLT3(D835V)) was 0%, the remaining activity at 1 µM (AURKC) was 61% and the remaining activity at 1 µM (CSNK1E) was 0.5%. The remaining activity at 1 µM (PLK4) was 99%, the remaining activity at 1 µM (TLK1) was 55% and the remaining activity at 1 µM (FGFR1) was 77%. It also gave a remaining activity at 1 µM (MEK4) of 100%, a remaining activity at 1 µM (ITK) of 86% and a remaining activity at 1 µM (CSNK1D) of 3.4%. For the same compound, the remaining activity at 1 µM (MKNK1) was 100%, the remaining activity at 1 µM (SgK110) was 100% and the remaining activity at 1 µM (p38-delta) was 100%. It also gave a remaining activity at 1 µM (FAK) of 43%, a remaining activity at 1 µM (SGK3) of 100% and a remaining activity at 1 µM (PIK3CA(H1047L)) of 100%. It also gave a remaining activity at 1 µM (NEK4) of 38%, a remaining activity at 1 µM [2] of 100% and a remaining activity at 1 µM (PIK3CA) of 100%. For the same compound, the remaining activity at 1 µM (PDGFRA) was 100%.
